Molecular target: ErbB2 insYVMA (HER2-YVMA) (Homo sapiens, UniProt P04626, INS775YVMA/P1170A)

By UniProt entry, the sequences of proteins in these tests, tags left out. Chains listed by the source or under a name are the forms on record and can include a tag or linker.
UniProt P04626, with tags, fused parts or gaps INS775YVMA/P1170A limits assumed: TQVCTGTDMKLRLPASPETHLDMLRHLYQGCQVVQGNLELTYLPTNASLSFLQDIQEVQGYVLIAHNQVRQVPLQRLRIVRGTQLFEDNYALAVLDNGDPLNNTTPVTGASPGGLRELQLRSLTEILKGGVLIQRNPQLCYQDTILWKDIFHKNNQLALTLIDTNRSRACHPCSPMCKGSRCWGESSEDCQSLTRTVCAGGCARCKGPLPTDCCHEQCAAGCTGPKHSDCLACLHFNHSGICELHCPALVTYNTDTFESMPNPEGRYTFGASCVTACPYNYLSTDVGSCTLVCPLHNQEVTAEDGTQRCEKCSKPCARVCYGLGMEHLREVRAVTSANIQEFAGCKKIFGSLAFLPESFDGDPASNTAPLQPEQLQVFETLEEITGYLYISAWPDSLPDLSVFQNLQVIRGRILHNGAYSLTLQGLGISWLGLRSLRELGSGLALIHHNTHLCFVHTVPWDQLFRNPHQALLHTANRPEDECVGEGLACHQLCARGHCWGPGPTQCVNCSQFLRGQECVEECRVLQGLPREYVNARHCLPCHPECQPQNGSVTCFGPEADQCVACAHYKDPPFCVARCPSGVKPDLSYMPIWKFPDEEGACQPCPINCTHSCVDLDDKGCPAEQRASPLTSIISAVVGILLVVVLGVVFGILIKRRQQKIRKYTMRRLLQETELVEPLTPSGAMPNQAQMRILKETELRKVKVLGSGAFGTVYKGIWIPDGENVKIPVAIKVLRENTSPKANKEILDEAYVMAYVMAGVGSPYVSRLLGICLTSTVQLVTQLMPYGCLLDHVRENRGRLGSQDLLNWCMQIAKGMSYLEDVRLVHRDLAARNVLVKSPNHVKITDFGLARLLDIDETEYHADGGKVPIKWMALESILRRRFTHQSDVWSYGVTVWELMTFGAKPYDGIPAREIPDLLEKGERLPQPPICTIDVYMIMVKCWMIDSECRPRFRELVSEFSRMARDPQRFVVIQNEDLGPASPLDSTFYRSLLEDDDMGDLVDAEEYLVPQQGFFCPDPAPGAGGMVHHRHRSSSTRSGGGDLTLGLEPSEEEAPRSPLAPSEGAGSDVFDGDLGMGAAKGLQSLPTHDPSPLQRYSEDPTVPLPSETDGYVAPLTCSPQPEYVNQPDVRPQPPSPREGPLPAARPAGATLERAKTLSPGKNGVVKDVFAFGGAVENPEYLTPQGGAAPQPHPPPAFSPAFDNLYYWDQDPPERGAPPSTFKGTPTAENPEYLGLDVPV

## C=CC(=O)N1[C@@H]2CC[C@H]1C[C@@H](c1ccc3ncnc(Nc4ccc(Oc5cnc6c(c5)ncn6C)c(C)c4F)c3n1)C2 [Example 227, 1-((1R,3r,5S)-3-(4-((2-fluoro-3-methyl-4-((3-methyl-3H-imidazo[4,5-b]pyridin-6-yl)oxy)phenyl)amino)pyrido[3,2-d]pyrimidin-6-yl)-8-azabicyclo[3.2.1]octan-8-yl)prop-2-en-1-one]
  IC50: 25.4 nM
